This is a sample that favours compounds with a hit; in the whole collection about 0.91% have one here.
FN deposit inh = fibronectin deposition inhibition. AH1F fibroblasts, Alexa488-fibronectin deposition fluorescence, overnight. inhibition, % at 12.6 µM. 0.086% of 350,000 active. AID 743247;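 active = mean inhibition across replicates of 30% or more, regardless of how many single replicates reach that level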
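Measured by – fluorescence 485/525 nm · System – AH1F fibroblast monolayer, labelled fibronectin deposition · Amount – 10000 cells per well · Buffer or medium – serum-reduced DMEM (2% serum) · Doses – single dose, pinned · Also added – fluorescent fibronectin at 24 nM final · Schedule – 1 h cell attachment, overnight exposure to compound and label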
hiPSC survival = increases survival of single human iPS cells. 0.044% of 360,000 active. hiPSC single-cell survival, ATPlite luminescence; 100% = ROCK inhibitor wells, 0% = DMSO. AID 602274. survival enhancement, % at 20 µM; in the data active = survival enhancement above about 18%;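 also: cells exposed to compounds for 16 hours before the ATP read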
Statin myotox sup = protects C2C12 myotubes from simvastatin toxicity. ATP luminescence, 48 h; scaled: DMSO 0, geranylgeraniol control 100. rescue of ATP level, % at 7.49 µM. 0.78% of 330,000 active;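 active = mean ATP rescue above about 67%, or every replicate alone reaching that limit, limit read from the data, passing the limit was not always enough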;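 also: myotubes were challenged with 10 µM simvastatin during compound exposure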
Yeast UUG start = yeast start codon fidelity modulation; AID 602363; activity score, % at 18.7 µM; S. cerevisiae UUG-firefly luciferase reporter, luminescence/redox ratio; 0.13% of 350,000 active;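 active means replicate mean at a twofold rise or more, about +100% in these data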;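 further: firefly luciferase made from a UUG start codon reports start codon fidelity; reporter light over untreated wells divided by growth signal over untreated wells; some hits fall short of that in this replicate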
PGC1a acetyl inh = PGC1a acetylation modulation, inhibitor mode; U2OS PGC1a acetylation, AlphaScreen anti-acetyl-lysine; with virally co-expressed GCN5 acetyltransferase; inhibition, % at 15.6 µM; 0.17% of 350,000 active; AID 651687;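 active = every replicate shows inhibition of at least 40%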
Hits are given with their value.

How did C[C@@H]1CN([C@H](C)CO)S(=O)(=O)c2ccc(-c3cccc(C#N)c3)cc2O[C@H]1CN(C)C(=O)C1CC1 do in these assays?
FN deposit inh: inactive; Statin myotox sup: inactive; Yeast UUG start: inactive; PGC1a acetyl inh: inactive

Results for O=C(CC1NCCNC1=O)OCc1ccccc1 (stereo unspecified) ?
hiPSC survival: inactive; Statin myotox sup: 96; Yeast UUG start: inactive; PGC1a acetyl inh: inactive

Results for CN1C(=O)c2cc(NC(=O)c3ccc(F)c(F)c3)ccc2OC[C@H]2O[C@H](CC(=O)O)CC[C@@H]21 ?
FN deposit inh: inactive; Statin myotox sup: inactive; Yeast UUG start: inactive; PGC1a acetyl inh: inactive

Results for CCCOn1nnnc1-c1ccccc1 ?
hiPSC survival: inactive; Statin myotox sup: 120; PGC1a acetyl inh: inactive

What do the screens show for `Nc1nsc2ccccc12`?
hiPSC survival: inactive; Statin myotox sup: 120; Yeast UUG start: inactive; PGC1a acetyl inh: inactive

Results for Cc1ccc(S(=O)(=O)N(CC2CO2)c2ccccc2[N+](=O)[O-])cc1 (stereo unspecified) ?
FN deposit inh: inactive; hiPSC survival: inactive; Statin myotox sup: inactive; PGC1a acetyl inh: 79

Results for Cc1noc(C)c1NC(=O)N(C)C[C@@H]1Oc2ccc(NC(=O)Nc3ccc(C(F)(F)F)cc3)cc2CC(=O)N([C@@H](C)CO)C[C@H]1C ?
Statin myotox sup: inactive; Yeast UUG start: inactive; PGC1a acetyl inh: inactive

Results for Cc1cccc(NC(=O)c2ccc(S(=O)(=O)N3CCCCC3)cc2)n1 ?
FN deposit inh: 38; hiPSC survival: inactive; Statin myotox sup: inactive; Yeast UUG start: inactive; PGC1a acetyl inh: inactive

What do the screens show for `C[C@@H]1CCCCO[C@@H](CN(C)Cc2ccc(Cl)c(Cl)c2)[C@@H](C)CN([C@H](C)CO)C(=O)c2cc(N(C)C)ccc2O1`?
PGC1a acetyl inh: inactive

How did O=C(Oc1ccc(N2C(=O)CCC2=O)cc1)c1ccco1 do in these assays?
hiPSC survival: inactive; Statin myotox sup: inactive; Yeast UUG start: inactive; PGC1a acetyl inh: inactive

Results for O=C(Oc1ccc(Cl)cc1N1C(=O)CCC1=O)c1ccco1 ?
FN deposit inh: inactive; hiPSC survival: inactive; Statin myotox sup: 66; Yeast UUG start: inactive; PGC1a acetyl inh: inactive

What do the screens show for `C/C=C/c1cnc2c(c1)C(=O)N([C@H](C)CO)C[C@@H](C)[C@H](CN(C)C(=O)Cc1ccccn1)O2`?
Statin myotox sup: inactive; Yeast UUG start: inactive; PGC1a acetyl inh: inactive

What do the screens show for `CC1CCCCN1CCCNC(=O)C1CCN(c2nnc(-n3cccc3)s2)CC1` (stereo unspecified)?
FN deposit inh: inactive; hiPSC survival: inactive; Statin myotox sup: inactive; Yeast UUG start: inactive; PGC1a acetyl inh: inactive

What do the screens show for `CCC1=C(c2ccc(C)cc2)S(=O)(=O)N=C1N1CCC(C(=O)NCCCN2CCCCC2C)CC1` (stereo unspecified)?
FN deposit inh: inactive; hiPSC survival: inactive; Statin myotox sup: 115; Yeast UUG start: inactive; PGC1a acetyl inh: inactive

Results for C[C@@H]1CN([C@H](C)CO)C(=O)Cc2cc(NC(=O)Cn3cnnn3)ccc2O[C@H]1CN(C)C(=O)Nc1ccccc1 ?
Statin myotox sup: inactive; Yeast UUG start: inactive; PGC1a acetyl inh: inactive

What do the screens show for `CC(C)Cc1nnc(NC(=O)CSc2nc(N)cc(=O)[nH]2)s1`?
FN deposit inh: active; hiPSC survival: inactive; Statin myotox sup: inactive; Yeast UUG start: inactive; PGC1a acetyl inh: inactive

Results for CCc1nc(SCC(=O)Nc2nnc(CC(C)C)s2)n[nH]1 ?
FN deposit inh: inactive; hiPSC survival: inactive; Statin myotox sup: inactive; Yeast UUG start: inactive; PGC1a acetyl inh: inactive

How did CCCNC(=O)N(C)C[C@@H]1Oc2ncc(C#CC(C)C)cc2C(=O)N([C@H](C)CO)C[C@@H]1C do in these assays?
FN deposit inh: inactive; Statin myotox sup: inactive; Yeast UUG start: inactive; PGC1a acetyl inh: inactive

Results for Nn1c(SCC(=O)N2CCN(S(=O)(=O)c3ccccc3)CC2)nnc1-c1cccs1 ?
hiPSC survival: inactive; Statin myotox sup: 126; Yeast UUG start: inactive; PGC1a acetyl inh: inactive

What do the screens show for `O=C1C=CCCN1C(=O)/C=C/c1cccc(Br)c1`?
PGC1a acetyl inh: 46

Results for CCOc1nc(Nc2ccc(OC)c(Cl)c2)nc(N2CCN(c3ccc(OC)cc3)CC2)n1 ?
hiPSC survival: inactive; Yeast UUG start: inactive; PGC1a acetyl inh: inactive

Results for COc1ccc(Nc2ncc(C(=O)N3CCN(c4ccc(F)cc4)CC3)c3ccccc23)cc1 ?
FN deposit inh: inactive; hiPSC survival: inactive; Statin myotox sup: 157; Yeast UUG start: inactive; PGC1a acetyl inh: inactive

How did CCOc1nc(Nc2ccc(F)cc2)nc(N2CCN(c3ccc(OC)cc3)CC2)n1 do in these assays?
hiPSC survival: inactive; Statin myotox sup: 110; Yeast UUG start: inactive; PGC1a acetyl inh: inactive

What do the screens show for `O=C1CCCn2cc(nn2)COC[C@@H](Cc2ccccc2)N1`?
FN deposit inh: inactive

How did c1ccc(C2=Nc3ccccc3OC2)cc1 do in these assays?
FN deposit inh: inactive; hiPSC survival: inactive; Statin myotox sup: 89; Yeast UUG start: inactive; PGC1a acetyl inh: inactive

How did CCOC(=O)C1=C(C)Nc2ncnn2C1c1ccccc1F (stereo unspecified) do in these assays?
hiPSC survival: inactive; Statin myotox sup: 81; Yeast UUG start: inactive; PGC1a acetyl inh: inactive

How did CC(=O)C1=C(C)Nc2ncnn2C1c1ccccc1OCc1ccccc1 (stereo unspecified) do in these assays?
hiPSC survival: inactive; Statin myotox sup: 114; Yeast UUG start: inactive; PGC1a acetyl inh: inactive

How did O=C(Cc1cccnc1)N1CC(=O)N2[C@H](C1)[C@H](c1ccc(C#CC3CCCC3)cc1)[C@@H]2CO do in these assays?
FN deposit inh: inactive; PGC1a acetyl inh: inactive

What do the screens show for `C[C@H](CO)N1C[C@H](C)[C@@H](CN(C)Cc2ccncc2)Oc2cc(C#CCN(C)C)ccc2S1(=O)=O`?
Statin myotox sup: inactive; PGC1a acetyl inh: inactive

How did C[C@H]1CN([C@@H](C)CO)C(=O)c2cc(C#CC3(O)CCCC3)cnc2O[C@H]1CN(C)C(=O)C1CCC1 do in these assays?
Statin myotox sup: inactive; Yeast UUG start: inactive; PGC1a acetyl inh: inactive

Results for OC(CNC1CCCc2ccccc21)COc1c(Cl)cccc1Cl (stereo unspecified) ?
FN deposit inh: 42; hiPSC survival: inactive

How did COc1ccc(S(=O)(=O)N(C)C[C@@H]2OCCCC[C@H](C)Oc3ccc(NC(=O)NC4CCCCC4)cc3C(=O)N([C@@H](C)CO)C[C@@H]2C)cc1 do in these assays?
FN deposit inh: inactive; Yeast UUG start: inactive; PGC1a acetyl inh: inactive

Results for O=c1[nH]cnc2scc(-c3ccsc3)c12 ?
hiPSC survival: inactive; Statin myotox sup: 117; Yeast UUG start: inactive; PGC1a acetyl inh: inactive

Results for CNC(=O)C[C@@H]1CC[C@@H]2[C@H](COC[C@H](O)CN2C(=O)c2ccc3c(c2)OCO3)O1 ?
FN deposit inh: inactive; Statin myotox sup: inactive; PGC1a acetyl inh: inactive

Results for COCCCNc1nc2c([nH]1)c(=O)[nH]c(=O)n2C ?
FN deposit inh: inactive; hiPSC survival: inactive; Statin myotox sup: 133; Yeast UUG start: inactive; PGC1a acetyl inh: inactive
